# Data published in US6503916B2, “Treatment of ischemic brain injury” (Board of Regents, The University of Texas System, priority 1999, dated 2003).
# System: rat model of transient focal cerebral ischemia
smiles,measurement,setting,value
CCO [ethanol],infarct volume,"oral treatment 3 hours and 1 hour before ischemia, 3 hours MCA/CCA occlusion, 24 hours reperfusion",177.2+/−27.8 mm^3
Cn1c(=O)c2c(ncn2C)n(C)c1=O [caffeine],infarct volume,"rat, in vivo, po",122.4+/−30.2 mm^3

# Read-outs that look alike come from different tables or passages of the source.
